Earlier results as cited in patent US11304929B2, “Tosylacetate based compounds and derivatives thereof as PHGDH inhibitors” (priority 2017, dated 2022).

Protein sequences, listed by entry. Tags and fused reporters are not part of them. Residues count along the entry.
UniProt O43175, 2-533 limits assumed: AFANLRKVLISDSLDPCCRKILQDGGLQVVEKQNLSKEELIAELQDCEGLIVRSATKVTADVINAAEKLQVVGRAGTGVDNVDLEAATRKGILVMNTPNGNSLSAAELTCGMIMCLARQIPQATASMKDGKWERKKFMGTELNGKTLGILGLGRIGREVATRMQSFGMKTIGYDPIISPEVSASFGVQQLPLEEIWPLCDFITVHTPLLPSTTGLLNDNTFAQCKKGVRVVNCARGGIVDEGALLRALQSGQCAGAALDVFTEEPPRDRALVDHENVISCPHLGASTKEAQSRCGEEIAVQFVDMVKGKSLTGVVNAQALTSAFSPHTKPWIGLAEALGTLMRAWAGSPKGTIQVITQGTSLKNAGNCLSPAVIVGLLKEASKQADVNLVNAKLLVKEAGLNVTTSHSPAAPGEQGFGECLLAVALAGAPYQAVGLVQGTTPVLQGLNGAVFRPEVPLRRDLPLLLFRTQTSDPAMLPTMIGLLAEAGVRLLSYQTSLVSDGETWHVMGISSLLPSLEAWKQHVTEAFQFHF

Molecular target: PHGDH (Homo sapiens (Human), UniProt O43175)
Settings: reported by Cantley et al., PNAS (2016); cited from earlier work

CBR-5884
potency as allosteric PHGDH inhibitor: low micromolar potency
